# In PubChem BioAssay AID488895 (Broad Institute, 2010):
# The entries are a selection whose mix differs from that of the whole data set. Some tests of the compounds listed are not included; inactive here does not mean inactive elsewhere. Calls of active or inactive are those of the source.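 How the source made its calls: active means mean replicate inhibition at least 50% and at least half of replicates individually reaching 50%; inconclusive means only one of the two criteria met; inactive means neither criterion met.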
# Experiment: E. coli Tat export inhibitors, primary screen, MC4100, TorA-mCherry reporter, fluorescence, single point (AID 488895);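 further: exported cargo escapes ClpAP degradation while cytoplasmic cargo is degraded and loses fluorescence; 0% = median of neutral control wells and 100% = median of NaSCN control wells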
# Settings: at 10 µM, active compounds read high
row,Compound,inhibition
1,CC(C)N1C(=O)CC2(CCN(CCOC(=O)C(O)(c3ccccc3)c3ccccc3)CC2)C1=O,inactive: -6.29%
2,CCN(CC)CC(C)C(C)OC(=O)C(O)(c1ccccc1)c1ccccc1 (stereo not given),inactive: 3.8%
3,COc1cc(SC)ccc1C(=O)NCC1(N(C)C)CCCCC1,inactive: 1.24%
4,Cc1ccc(C(=O)NCC2(N3CCCCC3)CCCCC2)cc1,inactive: -7.28%
5,O=C(NCC1(N2CCCCC2)CCCCC1)c1cc([N+](=O)[O-])ccc1Cl,inactive: 0.214%
6,CN1[C@@H]2CC[C@H]1CC(OC(=O)C(O)(c1ccccc1)c1ccccc1)C2 (stereo not given in full),inactive: 0.791%
7,C=CCN1CCN(CCOC(=O)C(O)(c2ccccc2)c2ccccc2)CC1,inactive: -4.3%
8,O=C(NCC1(N2CCCCC2)CCCCC1)c1cc(F)c(F)cc1Cl,inactive: 0.719%
9,Cc1cc(C(=O)NCC2(N3CCCCC3)CCCCC2)ccc1[N+](=O)[O-],inactive: -4.73%
10,CCN1CCCC(OC(=O)C2(O)c3ccccc3C=Cc3ccccc32)C1 (stereo not given),inactive: 1.56%
11,O=C(NCC1(N2CCCCC2)CCCCC1)c1cccc(Br)c1,inactive: 1.96%
12,COc1ccc(C(=O)NCC2(N(C)C)CCCCC2)cc1,inactive: -1.68%
13,Cc1ccccc1C(=O)NCC1(N2CCCCC2)CCCCC1,inactive: -4.39%
14,CN(C)C1CCCC1OC(=O)C(O)(c1ccccc1)c1ccccc1 (stereo not given),inactive: 1.71%
15,CN(C)c1ccc(C(=O)NCC2(N(C)C)CCCCC2)cc1,inactive: -7.91%
16,COc1cccc(C(=O)NCC2(N3CCCCC3)CCCCC2)c1,inactive: -2.33%
17,COc1ccc(Cl)cc1C(=O)NCC1(N(C)C)CCCCC1,inactive: -8.78%
18,O=C(NCC1(N2CCCCC2)CCCCC1)c1cccc(Cl)c1,inactive: 2.19%
19,CN(C)C1(CNC(=O)c2ccc(Br)cc2)CCCCC1,inactive: -3.05%
20,COc1cc(C(=O)NCC2(N(C)C)CCCCC2)c([N+](=O)[O-])cc1OC,inactive: -0.956%
21,COc1ccc(Br)c(C(=O)NCC2(N3CCCCC3)CCCCC2)c1,inactive: 5.49%
22,CN(C)c1cccc(C(=O)NCC2(N(C)C)CCCCC2)c1,inactive: -9.63%
23,CC(C)Oc1ccc(C(=O)NCC2(N(C)C)CCCCC2)cc1,inactive: 1.11%
24,O=C(OCCN1CCCC1)C(O)(c1ccccc1)c1ccccc1,inactive: 1.69%
25,O=C(OC1CN2CCC1CC2)C(CO)(c1ccccc1)c1ccccc1 (stereo not given),inactive: -4.38%
